Data: patent US4710578A, “Isothiuronium salts” (Peremartoni Vegyipari Vallalat, priority 1984, dated 1987)

What was measured:
NK-ly-ascites lymphoma = NK-ly-ascites lymphoma in vivo; parameters: species or system CFLP male mice; details: concentration below one-tenth of the LD50 value
[1] = tested on: neutrophilic granulocytes, lymphocytes and macrophages; assay: Preliminary rapid test: immunostimulant effect; assay type: in vivo, CFLP male mice; details: oral, one-tenth of LD50; 24 hours
Lewis long tumor = assay: Lewis long tumor, lung metastases; details: mouse, in vivo
24 hours' acute toxicity = details: p.o.

In the case of `N=C(N)NC(=N)SCCBr`, the “Activity against NK-ly-ascites tumor” value (NK-ly-ascites lymphoma) is reported as “active agains Nk-ly-ascites tumor in a concentration below one-tenth of the LD50 value”, the Immunostimulant effect [1] is reported as “weak” and the “Effective dose in Lewis long tumor relative to LD50” value (Lewis long tumor) is reported as “effective in a dose lower than one-tenth of the LD50 value”. For the same molecule, the LD50 (24 hours' acute toxicity) was 1050 ± 280 mg/kg.
